The experiment deals with PefR (GAS PefR) (Streptococcus pyogenes, UniProt Q9A1K6). Nature of the experiment: biochemical. More on the design: gene SPy_0228.

By UniProt entry, the sequences of proteins in these tests, tags left out.
UniProt Q9A1K6, entry or part of it: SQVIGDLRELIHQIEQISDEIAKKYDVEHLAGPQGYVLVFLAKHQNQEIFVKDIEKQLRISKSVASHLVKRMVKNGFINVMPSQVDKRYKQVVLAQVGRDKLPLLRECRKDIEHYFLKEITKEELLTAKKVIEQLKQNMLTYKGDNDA

Structures are written as SMILES.

The molecule `C=CC1=C(C)C2=Cc3c(C=C)c(C)c4[n]3[Fe]([Cl])[n]3c(c(C)c(CCC(=O)O)c3=CC3=NC(=C4)C(C)=C3CCC(=O)O)=CC1=N2` [heme] returned a Kd of 10 µM.

The Kd is a measure of binding affinity in units of concentration. A low value points to tighter binding.

The values are drawn from PMC4220732, “The crimson conundrum: heme toxicity and tolerance in GAS” (Frontiers in Cellular and Infection Microbiology, 2014).
